One experiment addresses NPFF receptors. As to conditions: spinal cord membranes; read-out: Ki, inhibition of [125I](1DMe)Y8Fa binding; cited from earlier work.
Experiment [1] concerns the target T1, human NPFF2 receptor (Homo sapiens, UniProt Q9Y5X5).
T1 construct: BO89, was determined to be a full length clone with no point mutations; expressed in transfected cells; host or cells: HEK-293 (transient)
The experiment is described as follows: [125I]D-Tyr-NPFF radioligand binding, HEK-293 cells expressing human NPFF2. As to conditions: Table 3, read-out: pKi ± SEM, human NPFF2 (converted). As to the method: (§1) Transfected cells from culture flasks are scraped into 5 ml of 20 mM Tris-HCl, 5 mM EDTA, pH 7.5, and lysed by sonication. The cell lysates are centrifuged at 1000 rpm for 5 min. at 4° C., and the supernatant is centrifuged at 30,000×g for 20 min. at 4° C. The pellet is suspended in binding buffer (50 mM Tris-HCl, 60 mM NaCl, 1 mM MgCl, 33 μM EDTA, 33 μM EGTA at pH 7.4 supplemented with 0.2% BSA, 2 μg/ml aprotinin, and 20 μM bestatin). Optimal membrane suspension dilutions, defined as the protein concentration required to bind less than 10% of the added radioligand, are added to 96-well polpropylene microtiter plates containing ^3H-labeled compound, unlabeled compounds, and binding buffer to a final volume of 250 μl. […] The binding affinities of the different compounds are determined in equilibrium competition binding assays, using [^125I]-labeled compound in the presence of ten to twelve different concentrations of the displacing ligands. […] Radioactivity may be measured by scintillation counting and data are analyzed by a computerized non-linear regression program. Non-specific binding is defined as the amount of radioactivity remaining after incubation of membrane protein in the presence of 1 μM final concentration […]. Protein concentration may be measured by the Bradford method using Bio-Rad Reagent, with bovine serum albumin as a standard. […]

Amino acid sequences for entries named in this document (tags omitted). A change or cut given only in a name is not applied to a line headed by its entry. Residues count along the entry.
UniProt Q9Y5X5, 103-522: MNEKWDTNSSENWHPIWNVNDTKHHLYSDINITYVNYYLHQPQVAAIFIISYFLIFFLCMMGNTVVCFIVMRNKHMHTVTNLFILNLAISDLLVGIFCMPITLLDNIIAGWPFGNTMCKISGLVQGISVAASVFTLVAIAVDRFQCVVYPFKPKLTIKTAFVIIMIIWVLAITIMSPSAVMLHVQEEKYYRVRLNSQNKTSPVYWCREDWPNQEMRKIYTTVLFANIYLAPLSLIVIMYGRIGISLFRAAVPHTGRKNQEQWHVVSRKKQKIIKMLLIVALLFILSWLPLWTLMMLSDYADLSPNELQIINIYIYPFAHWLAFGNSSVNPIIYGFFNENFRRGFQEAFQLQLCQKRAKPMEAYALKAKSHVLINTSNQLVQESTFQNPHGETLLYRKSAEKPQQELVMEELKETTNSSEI
UniProt Q9GZQ6: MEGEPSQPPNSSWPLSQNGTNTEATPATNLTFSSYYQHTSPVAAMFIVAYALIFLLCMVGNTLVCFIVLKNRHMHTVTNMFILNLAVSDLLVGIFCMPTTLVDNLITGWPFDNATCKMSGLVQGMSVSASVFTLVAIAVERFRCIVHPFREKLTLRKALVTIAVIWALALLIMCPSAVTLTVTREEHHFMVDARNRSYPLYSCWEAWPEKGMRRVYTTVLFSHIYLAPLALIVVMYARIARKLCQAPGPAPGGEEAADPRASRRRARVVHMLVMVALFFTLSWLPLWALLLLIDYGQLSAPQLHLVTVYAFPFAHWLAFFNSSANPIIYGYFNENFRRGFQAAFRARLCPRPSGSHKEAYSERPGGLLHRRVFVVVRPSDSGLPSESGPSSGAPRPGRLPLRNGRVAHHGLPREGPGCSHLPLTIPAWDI
UniProt Q9EP86: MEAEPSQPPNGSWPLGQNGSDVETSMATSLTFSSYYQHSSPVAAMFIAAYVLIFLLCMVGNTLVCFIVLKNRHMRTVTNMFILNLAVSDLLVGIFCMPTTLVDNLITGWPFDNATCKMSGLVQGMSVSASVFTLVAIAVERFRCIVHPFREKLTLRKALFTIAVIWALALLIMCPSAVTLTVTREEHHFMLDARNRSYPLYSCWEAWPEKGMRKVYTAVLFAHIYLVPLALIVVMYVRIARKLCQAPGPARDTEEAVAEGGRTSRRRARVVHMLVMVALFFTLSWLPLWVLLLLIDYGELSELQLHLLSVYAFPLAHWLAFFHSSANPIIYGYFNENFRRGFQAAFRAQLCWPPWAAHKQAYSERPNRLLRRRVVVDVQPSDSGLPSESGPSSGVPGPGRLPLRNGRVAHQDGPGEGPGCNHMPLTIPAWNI
UniProt Q9EQD2: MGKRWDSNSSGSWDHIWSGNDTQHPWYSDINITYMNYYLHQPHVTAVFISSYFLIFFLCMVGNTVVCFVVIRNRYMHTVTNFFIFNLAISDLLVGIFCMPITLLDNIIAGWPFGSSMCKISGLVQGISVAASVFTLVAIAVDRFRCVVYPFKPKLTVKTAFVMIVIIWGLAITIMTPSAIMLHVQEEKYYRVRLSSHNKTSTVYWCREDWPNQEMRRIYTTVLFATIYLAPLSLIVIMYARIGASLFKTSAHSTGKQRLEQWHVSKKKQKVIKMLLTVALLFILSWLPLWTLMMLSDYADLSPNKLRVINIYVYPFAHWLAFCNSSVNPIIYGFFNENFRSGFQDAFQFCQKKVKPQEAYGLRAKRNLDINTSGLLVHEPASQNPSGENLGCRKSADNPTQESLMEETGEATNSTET

The target in experiment [2] is rat spinal cord membrane receptor. The experiment is described as follows: [125I]D-Tyr-NPFF radioligand binding, rat spinal cord membranes. As to conditions: competition of [125I]D-Tyr-NPFF binding; * = differs from NPFF1. The source says:
The binding profile of rat NPFF1 was compared to that of rat spinal cord membranes. […] (See * Table 2).

The target of experiment [3] is T2, human NPFF1 receptor (Homo sapiens, UniProt Q9GZQ6).
T2 construct: To obtain a full-length hNPFF1 construct in the correct orientation; expressed in transfected cells; host or cells: HEK-293 (transient)
Nature of the experiment: [125I]D-Tyr-NPFF radioligand binding, HEK-293 cells expressing human NPFF1. The note with it: Table 3, read-out: pKi ± SEM, human NPFF1 (converted). As to the method:
as §1

The target in a further experiment is T3, NPFF2 (NPFF-like) (Homo sapiens, UniProt Q9Y5X5).
T3 construct: linearized plasmids or PCR products containing the complete coding region of the genes; expressed in transfected cells; host or cells: Xenopus laevis oocytes injected with mRNA from ligation PCR products or linearized BO89
Nature of the experiment: Voltage-clamp electrophysiology, Xenopus oocytes injected with NPFF-like (NPFF2) and chimeric Gαq/z RNA. Format: cell-based. As to conditions: 1 μM, holding potential −80 mV. As to the method: For expression of NPFF2, mRNA transcripts were generated as described for NPFF1, using PCR products from ligation reactions or linearized DNA from BO89 as DNA templates. Oocytes were injected with 5-50 ng NPFF2 mRNA and incubated as previously described.
(§2) Oocytes were harvested from Xenopus laevis and injected with mRNA transcripts as previously described (Quick and Lester, 1994; Smith et al., 1997). […] Three to eight hours prior to recording, oocytes were injected with 500 pg Gαq/z mRNA in order to observe coupling to Ca^++ activated Cl^− currents. Dual electrode voltage clamp (Axon Instruments Inc.) was performed using 3 M KCl-filled glass microelectrodes having resistances of 1-2 Mohm. Unless otherwise specified, oocytes were voltage clamped at a holding potential of −80 mV. During recordings, oocytes were bathed in continuously flowing (1-3 ml/min) medium containing 96 mM NaCl, 2 mM KCl, 1.8 mM CaCl2, 1 mM MgCl2, and 5 mM HEPES, pH 7.5 (ND96). Drugs were applied either by local perfusion from a […] glass capillary tube fixed at a distance of 0.5 mm from the oocyte, or by switching from a series of gravity fed perfusion lines.
Heterologous expression of GPCRs in Xenopus oocytes has been widely used to determine the identity of signaling pathways activated by agonist stimulation (Gundersen et al., 1983; Takahashi et al., 1987). […]

The target in the next experiment is rat NPFF1 receptor (Rattus norvegicus, UniProt Q9EP86). Nature of the experiment: [125I]D-Tyr-NPFF radioligand binding, HEK-293 cells expressing rat NPFF1. As to conditions: Table 3, read-out: pKi ± SEM, rat NPFF1 (converted). More on the design: expressed in transfected cells. As to the method:
as §1

The next experiment addresses T4, rat NPFF2 receptor (Rattus norvegicus, UniProt Q9EQD2).
T4 construct: The full-length rat NPFF2 clone was amplified from rat spinal cord cDNA; expressed in transfected cells; host or cells: COS-7
The experiment is described as follows: [125I]D-Tyr-NPFF radioligand binding, cloned rat NPFF2. The note with it: Table 3, title HEK-293 cells (text: Cos-7), read-out: pKi ± SEM, rat NPFF2 (converted). As to the method:
as §1

Experiment [4] has as its target T2, human NPFF1 receptor. Nature of the experiment: Intracellular calcium mobilization, COS-7 cells expressing human NPFF1 and Gq/Gz chimera. The class given is cell-based. As to the method:
(§3) Alternatively, cells expressing the mammalian receptor DNA are plated in 96-well plates and grown to confluence. Cells are incubated with a cell permeant fluorescent calcium indicator such as, but not restricted to, Fluo-3/AM. After washing with HBS to remove the Fluo-3/AM solution, cells are equilibrated for 20 min. The fluorescence emission due to intracellular calcium mobilization elicited by agonists of the expressed mammalian receptor, is determined with a fluorescence imaging plate reader (FLIPR, Molecular Devices Corporation, Sunnyvale, Calif.).
(§4) The coupling of human NPFF1 and NPFF2 receptors to the activation of intracellular second messenger pathways was studied further in COS-7 cells co-transfected with the Gq/Gz chimera.

Another experiment addresses T5, NPFF1 (SNORF2) (Rattus norvegicus, UniProt Q9EP86).
T5 construct: linearized plasmids or PCR products containing the complete coding region of the genes; expressed in transfected cells; host or cells: Xenopus laevis oocytes injected with synthetic RNA (T7 transcripts)
Nature of the experiment: Voltage-clamp electrophysiology, Xenopus oocytes injected with SNORF2 (NPFF1) and chimeric Gαq/z RNA. The class given is cell-based. The note with it: 10 μM. As to the method: as §2
Heterologous expression of GPCRs in Xenopus oocytes has been widely used to determine the identity of signaling pathways activated by agonist stimulation (Gundersen et al., 1983; Takahashi et al., 1987). Activation of the phospholipase C (PLC) pathway is assayed by applying test compound in ND96 solution to oocytes previously injected with mRNA for the mammalian receptor and observing inward currents at a holding potential of −80 mV. […]

Experiment [5] addresses T1, human NPFF2 receptor. Nature of the experiment: Intracellular calcium mobilization, COS-7 cells expressing human NPFF2 and Gq/Gz chimera. Format: cell-based. As to the method: as §3, §4
On the technique in general: A change in cytosolic calcium serves as a functional read-out for many receptors and channels.

As for `CSCC[C@H](NC(=O)[C@@H](N)Cc1ccccc1)C(=O)N[C@@H](CCCNC(=N)N)C(=O)N[C@@H](Cc1ccccc1)C(N)=O` [FMRFa], the Ki is 30 nM at NPFF receptors; 3.98 nM at human NPFF2 receptor [1]; 0.794 nM on human NPFF1 receptor [3]; 2 nM on rat NPFF1 receptor; 10 nM on rat NPFF2 receptor. Besides, in experiment [2], the “pKi for rat spinal cord membrane receptor binding, MEAN” value (from here on “pKi”) worked out at 8.493. Moreover, the inward current response result on NPFF2 (NPFF-like) is “No activity”.
In the case of `N=C(N)NCCC[C@H](NC(=O)[C@H](CCC(N)=O)NC(=O)[C@@H]1CCCN1)C(=O)N[C@@H](Cc1ccccc1)C(N)=O` [PQRFa], the “% of NPPF Response, NPFF1” value at human NPFF1 receptor [4] stood at 93%. For the same molecule, the EC50 at human NPFF1 receptor [4] (read-out: pEC50, intracellular calcium mobilization, NPFF1 (converted)) was 200 nM; at human NPFF2 receptor [5] (read-out: pEC50, intracellular calcium mobilization, NPFF2 (converted)), 100 nM. For the same molecule, the Ki at human NPFF2 receptor [1] was 25.1 nM; on human NPFF1 receptor [3], 39.8 nM; at rat NPFF1 receptor it was 25.1 nM; on rat NPFF2 receptor, 25.1 nM. The “pKi” value in experiment [2] is 8.541. The inward current response entry is “activated similar inward currents” at NPFF2 (NPFF-like) and “elicited responses” on NPFF1 (SNORF2). Further, the “% of NPPF Response, NPFF2” value at human NPFF2 receptor [5] was found to be 94%.
Consider `CC(C)C[C@H](NC(=O)[C@@H](N)Cc1ccccc1)C(=O)N[C@@H](Cc1ccccc1)C(=O)N[C@@H](CCC(N)=O)C(=O)N1CCC[C@H]1C(=O)N[C@@H](CCC(N)=O)C(=O)N[C@@H](CCCNC(=N)N)C(=O)N[C@@H](Cc1ccccc1)C(N)=O` [NPFF], for which, on NPFF receptors, the Ki is 0.29 nM. Also, in experiment [2], the “pKi” value is recorded as 9.055.

(Values after patent US7276339B2 (H. Lundbeck A/S, priority 1998, dated 2007).)
